# scFv variants of Ab-14 (light chain) against a SARS-CoV-2 spike peptide

From the AlphaSeq antibody data of Li et al. 2023 (doi:10.1038/s41467-023-39022-2), copy in the FLAb collection.

Target: peptide PDVDLGDISGINAS, taken from heptad repeat 2 (HR2) of SARS-CoV-2 spike.

Ab-14 is the parent antibody, in scFv form: VH, then a (GGGGS)3 linker, then VL. The heavy chain is unchanged in all variants.
VH: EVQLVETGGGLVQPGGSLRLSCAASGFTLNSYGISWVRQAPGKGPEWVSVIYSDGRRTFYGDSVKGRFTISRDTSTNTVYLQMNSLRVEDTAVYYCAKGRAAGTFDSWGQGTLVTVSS
VL: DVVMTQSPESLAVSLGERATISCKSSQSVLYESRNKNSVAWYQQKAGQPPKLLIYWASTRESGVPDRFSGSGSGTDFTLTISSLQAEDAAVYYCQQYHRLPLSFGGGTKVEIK

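Phage display of a naive human antibody library on the peptide gave the parent. These sequences belong to a second round, designed from the earlier measurements on random variants of the parent. Several design methods are mixed in this list. Affinity was read by AlphaSeq, a pooled yeast mating assay with surface-displayed partners. Pairs that bind mate more often; barcode pairs of the diploids are counted by sequencing. Scores were corrected for input abundance and mapped to Kd with protein pairs of known affinity run in the same pool. Each pool was mated in six replicate cultures.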

Changes read parent residue, position, new residue, counted from the first residue of the VL shown. Variants here have at most six changes. The Kd shown is the geometric mean over detected replicates; a lower Kd is a better binder. "nd" means that the variant was in the library but no mating with the target was seen in any replicate; the authors take this as a sign of poor binding, and no number exists. Empty control strains, which show no peptide, gave a signal in 4% of pairings with all light chain designs; the median was 430 nM and 95% of these signals were weaker than 38 nM. No background was subtracted. The control count says in how many pairings with the empty strains this scFv gave a signal. The range of this assay differs from that of the first round, and the authors advise against merging the two. The authors averaged sequences with at least three values out of six and counted those with two or fewer as poor binders. Of ten entries with the parent sequence, four were seen in most replicates (averages 2.2 nM to 240 nM), three in one and three in none, so single entries are noisy.

V29E+R34G+W56H: 2.9 nM (6 of 6 replicates; controls 1 of 18).
S25L+S26Q+V29E+L30G+W56N+T59Q: 1.1 nM (6 of 6 replicates; controls 3 of 18).
S25L+V29R+W56N+T59Q: 790 pM (6 of 6 replicates; controls 1 of 18).
L30G+Y31A+N35T+H98N: 21 nM (1 of 6 replicates; controls 0 of 18).
R34Q+W56Q+A57V+T59I+Q96C: 98 nM (5 of 6 replicates; controls 1 of 18).
S25L+L30G+S38N+W56E: 1.8 nM (6 of 6 replicates; controls 4 of 18).
S103L: 9.7 nM (2 of 6 replicates; controls 0 of 18).
S25I+L30D+W56N: 510 pM (6 of 6 replicates; controls 0 of 18).
S25L+S26Q+V29Q+W56N+E61L: 680 pM (6 of 6 replicates; controls 1 of 18).
S25V+S26P+W56N+A57G: 770 pM (6 of 6 replicates; controls 1 of 18).
S25L+S26Q+N35Q+W56N+T59Q: 2.6 nM (6 of 6 replicates; controls 1 of 18).
S25L+V29H+K36S+S38N+W56D: 260 pM (6 of 6 replicates; controls 2 of 18).
S25V+S26E+L30E+W56N: 970 pM (6 of 6 replicates; controls 0 of 18).
S25L+V29D+W56Q+S62Q: 47 pM (5 of 6 replicates; controls 1 of 18).
E61Q: 40 nM (2 of 6 replicates; controls 0 of 18).
S26R+V29L+R99H+S103F: 170 nM (3 of 6 replicates; controls 0 of 18).
W56R+R99Y: 1.6 nM (6 of 6 replicates; controls 1 of 18).
V29D+S33P+N35M: 5.0 nM (6 of 6 replicates; controls 1 of 18).
N37H+W56N+H98I: 25 nM (6 of 6 replicates; controls 0 of 18).
S25L+W56N+T59Y: 630 pM (6 of 6 replicates; controls 1 of 18).
S25M+S33D+W56N+T59Q: 1.1 nM (6 of 6 replicates; controls 2 of 18).
S25L+K36W+W56N: 570 pM (6 of 6 replicates; controls 0 of 18).
V29Y+R34T+K36C+S38N: 200 nM (1 of 6 replicates; controls 0 of 18).
S26E+W56A: 1.4 nM (6 of 6 replicates; controls 1 of 18).
Y31N+E32I+W56G+E61V+L100K: nd (0 of 6 replicates; controls 0 of 18).
Q27C+R34E+W56E+T59Q: 8.0 nM (6 of 6 replicates; controls 0 of 18).
S25L+S26D+W56Q: 670 pM (6 of 6 replicates; controls 1 of 18).
K24S+S25Q+V29H+T59Q+L102W: 200 nM (2 of 6 replicates; controls 2 of 18).
S26N+H98S: 61 nM (1 of 6 replicates; controls 0 of 18).
S26Y+Q27I+V29Y+W56E+P101E: 2.5 nM (6 of 6 replicates; controls 0 of 18).
T59V+H98A: 26 nM (6 of 6 replicates; controls 2 of 18).
K24D+W56D+L100F+L102P: nd (0 of 6 replicates; controls 0 of 18).
S28P+R34A+K36C+R99M: 180 nM (2 of 6 replicates; controls 0 of 18).
R34G+W56H+E61M+S62D: 2.7 nM (6 of 6 replicates; controls 1 of 18).
S25L+W56S+Q96D: 650 pM (6 of 6 replicates; controls 1 of 18).
Q27E+L30D+H98V+S103L: 42 nM (1 of 6 replicates; controls 0 of 18).
S25F+S33M+N35A+V39I: 50 nM (4 of 6 replicates; controls 0 of 18).
S25Q+Q27D+E32D+R34T+W56G+E61N: 1.7 nM (6 of 6 replicates; controls 1 of 18).
L30G+Y31M+W56H: 3.7 nM (6 of 6 replicates; controls 1 of 18).
S25F+S26P+W56H+S62D+Q96S: 1.2 nM (6 of 6 replicates; controls 0 of 18).
S25L+S26M+W56H: 1.5 nM (6 of 6 replicates; controls 1 of 18).
K24M+Q27H+R34S+A57V+L100N: 350 nM (2 of 6 replicates; controls 0 of 18).
S25F+Y31H+R34V: 5.2 nM (6 of 6 replicates; controls 1 of 18).
S25V+V29Q+W56N+E61C: 1.2 nM (6 of 6 replicates; controls 0 of 18).
S25L+S26P+N35M+W56N: 230 pM (6 of 6 replicates; controls 0 of 18).
S25L+N35W+W56N+T59Q: 13 nM (6 of 6 replicates; controls 0 of 18).
S25L+S26V+V29T+N35Q: 15 nM (1 of 6 replicates; controls 0 of 18).

Again, the first 2 entries without any signal:

| changes | apparent Kd | seen in | control signals |
|---|---|---|---|
| Y31N+E32I+W56G+E61V+L100K | nd | 0 of 6 | 0 of 18 |
| K24D+W56D+L100F+L102P | nd | 0 of 6 | 0 of 18 |